Laboratory results: PMC2991585

Biological target: actin filament (barbed end) (UniProt P68135)
Assay: seeded pyrene-actin polymerization

Substance	Kd [nM]
CPαβ(R215A/D219A) (from UniProt P47753 1-286; P47757-2 1-272) (complex)	0.32
CPα(Q248A)β (from UniProt P47753 1-286; P47757-2 1-272) (complex)	0.11
CPαβ(L262S) (from UniProt P47753 1-286; P47757-2 1-272) (complex)	4
CPαβ(L266S) (from UniProt P47753 1-286; P47757-2 1-272) (complex)	2.61
CPαβ(K142A) (from UniProt P47753 1-286; P47757-2 1-272) (complex)	0.24
CPαβ(L258S/L262S/L266S) (from UniProt P47753 1-286; P47757-2 1-272) (complex)	9.7
CPα(E233A/N237A)β (from UniProt P47753 1-286; P47757-2 1-272) (complex)	0.24
CPαβ(D58A) (from UniProt P47753 1-286; P47757-2 1-272) (complex)	0.11
CPαβ(E256S/N260S) (from UniProt P47753 1-286; P47757-2 1-272) (complex)	0.36
CPα(D270A)β (from UniProt P47753 1-286; P47757-2 1-272) (complex)	0.25
CPαβ(K235A) (from UniProt P47753 1-286; P47757-2 1-272) (complex)	0.26
CPαβ(K53A) (from UniProt P47753 1-286; P47757-2 1-272) (complex)	0.16
CPα(R260A)β (from UniProt P47753 1-286; P47757-2 1-272) (complex)	2.1
CPα(T241A/E245A)β (from UniProt P47753 1-286; P47757-2 1-272) (complex)	0.16
CPαβ(A265S) (from UniProt P47753 1-286; P47757-2 1-272) (complex)	0.2
CPαβ(L258S) (from UniProt P47753 1-286; P47757-2 1-272) (complex)	1.3
CPα(E200R)β (from UniProt P47753 1-286; P47757-2 1-272) (complex)	4.41

Substance	Kd [nM]
CPα(D252A)β (from UniProt P47753 1-286; P47757-2 1-272) (complex)	0.12
CPα(ΔC28)β (from UniProt P47753 1-258; P47757-2 1-272) (complex)	2500
CPαβ(E256A/N260A) (from UniProt P47753 1-286; P47757-2 1-272) (complex)	0.44
CPαβ(L258S/L262S/A265S/L266S) (from UniProt P47753 1-286; P47757-2 1-272) (complex)	6.9
CPα(K268A)β (from UniProt P47753 1-286; P47757-2 1-272) (complex)	0.88
CPαβ(D200A) (from UniProt P47753 1-286; P47757-2 1-272) (complex)	0.2
CPαβ(K143A) (from UniProt P47753 1-286; P47757-2 1-272) (complex)	0.2
CPαβ(R225A) (from UniProt P47753 1-286; P47757-2 1-272) (complex)	1.36
capping protein (mouse CP alpha1/beta2 heterodimer), wild type (from UniProt P47753 1-286; P47757-2 1-272) (complex)	0.14
CPα(R266A)β (from UniProt P47753 1-286; P47757-2 1-272) (complex)	0.21
CPα(T249A/T253A)β (from UniProt P47753 1-286; P47757-2 1-272) (complex)	0.17
CPαβ(K199A) (from UniProt P47753 1-286; P47757-2 1-272) (complex)	0.29
CPαβ(N222A/S226A) (from UniProt P47753 1-286; P47757-2 1-272) (complex)	0.25
CPα(E200A/D201G)β (from UniProt P47753 1-286; P47757-2 1-272) (complex)	3.7
CPα(K256A)β (from UniProt P47753 1-286; P47757-2 1-272) (complex)	1.3
CPα(K273A)β (from UniProt P47753 1-286; P47757-2 1-272) (complex)	0.21
